Patent EP1903056A2, “HLA-A1, -A2 -A3, -A24, -B7, and -B44 tumor associated antigen peptides and compositions” (priority 2002, dated 2004)

How the values were obtained:
B*1801 = B*1801 (Homo sapiens, UniProt P01889, A329T/A93T/A95T/C349S/D201E/D54G/D98Y/E176V/E187T/E204Q/E69T/K202T/Q94N/R155S/R180L/S121R/V306I/Y140S/Y195H/Y33H/Y91S); test: B44 supertype peptide binding, B*1801
B*4501 = B*4501 (Homo sapiens, UniProt P01889, A329T/A65T/A93T/A95T/C349S/D138N/D201E/D98Y/E176V/E187L/E204Q/E69K/H137Y/K202T/L119W/N87E/Q56L/Q94N/R155S/R180D/S121R/S35A/S48T/V127L/V306I/V36M/W191S/Y140L/Y33H/Y91S); test: B44 supertype peptide binding, B*4501; conditions: read-out: B* 4501
B*4402 = B*4402 (Homo sapiens, UniProt P01889, A223V/A65T/A93T/A95T/D201E/D98Y/E176V/E187L/E204Q/E69K/G107R/H137Y/K202T/L105A/L119I/N104T/N87E/Q56L/Q94N/R106L/R155S/R180D/S101N/S121R/S35A/S48T/T118I/V36M/W191S/Y140D/Y91S); test: B44 supertype peptide binding, B*4402; conditions: read-out: B* 4402
B*4001(B60) = B*4001(B60) (Homo sapiens, UniProt P01889, A65T/A93T/A95T/D138N/D98Y/E176V/E69K/N87E/Q56L/Q94N/R180L/S121R/S35A/S48T/T167S/V36M/W171L/Y33H/Y91S); test: B44 supertype peptide binding, B*4001; conditions: HER 2/neu-derived B44 peptides, Table 27; read-out: B* 4001
B*4002 (B61) = B*4002 (B61) (Homo sapiens, UniProt P01889, A65T/A93T/A95T/D138N/D201E/D98Y/E176V/E204Q/E69K/K202T/N87E/Q56L/Q94N/R180L/S48T/Y33H/Y91S); test: B44 supertype peptide binding, B*4002; conditions: HER 2/neu-derived B44 peptides, Table 27; read-out: B* 4002
[1] = HER 2/neu-derived B44 peptides, Table 27
[2] = Table 29: MAGE2-derived B44 peptides

SMILES | IC50 (B*1801; [1]) [µM] | IC50 (B*4402; [1]) [µM] | IC50 (B*4001(B60)) [µM] | further results
CC[C@H](C)[C@H](NC(=O)[C@H](C)NC(=O)[C@@H](NC(=O)[C@@H]1CCCN1C(=O)[C@@H](NC(=O)[C@H](CCCCN)NC(=O)[C@@H](NC(=O)[C@H](CC(N)=O)NC(=O)[C@H](CCC(=O)O)NC(=O)CN)C(C)C)[C@@H](C)CC)C(C)C)C(=O)O [compound 464] | 0.563 |  |  | IC50 (B*4501; [1]): 0.198 µM
CC(C)C[C@H](NC(=O)CNC(=O)[C@H](CC(C)C)NC(=O)[C@H](Cc1ccc(O)cc1)NC(=O)[C@H](CCC(=O)O)NC(=O)[C@@H]1CCCN1C(=O)[C@H](CC(N)=O)NC(=O)[C@H](CCC(=O)O)NC(=O)[C@H](C)N)C(=O)N[C@@H](CC(=O)O)C(=O)N[C@H](C(=O)O)C(C)C [compound 470] | 11.9 |  |  | 
CC(C)C[C@H](NC(=O)[C@@H](NC(=O)[C@H](C)NC(=O)[C@H](CC(C)C)NC(=O)[C@H](C)NC(=O)[C@H](Cc1ccc(O)cc1)NC(=O)[C@H](CC(N)=O)NC(=O)[C@H](CC(=O)O)NC(=O)[C@H](CCC(=O)O)NC(=O)[C@@H](N)Cc1ccccc1)C(C)C)C(=O)O [compound 474] | 0.321 | 2.84 |  | 
CC[C@H](C)[C@H](NC(=O)[C@H](CC(N)=O)NC(=O)[C@H](C)NC(=O)[C@H](CO)NC(=O)[C@@H](NC(=O)[C@@H](NC(=O)[C@H](C)NC(=O)[C@H](CCCNC(=N)N)NC(=O)[C@@H](NC(=O)[C@H](CCC(=O)O)NC(=O)[C@@H](N)CCCNC(=N)N)C(C)C)C(C)C)[C@@H](C)O)C(=O)O [compound 482] | 4.49 | 1.68 |  | 
CC[C@H](C)[C@H](NC(=O)[C@H](CCCCN)NC(=O)[C@@H](NC(=O)[C@H](CC(N)=O)NC(=O)[C@H](CCC(=O)O)NC(=O)CN)C(C)C)C(=O)N1CCC[C@H]1C(=O)N[C@H](C(=O)N[C@@H](C)C(=O)O)C(C)C [compound 488] | 1.51 |  | 0.293 | 
CC[C@H](C)[C@H](NC(=O)[C@H](CCC(=O)O)NC(=O)[C@@H](N)CCCCN)C(=O)N[C@@H](CC(C)C)C(=O)N[C@@H](CC(=O)O)C(=O)N[C@@H](CCC(=O)O)C(=O)N[C@@H](C)C(=O)N[C@@H](Cc1ccc(O)cc1)C(=O)N[C@H](C(=O)O)C(C)C [compound 489] | 1.36 | 6.47 |  | 
CC[C@H](C)[C@H](NC(=O)[C@H](CCC(=O)O)NC(=O)[C@@H](N)CCCCN)C(=O)N[C@@H](CC(C)C)C(=O)N[C@@H](CC(=O)O)C(=O)N[C@@H](CCC(=O)O)C(=O)N[C@@H](C)C(=O)N[C@@H](Cc1ccc(O)cc1)C(=O)N[C@H](C(=O)N[C@@H](CCSC)C(=O)N[C@@H](C)C(=O)O)C(C)C [compound 490] | 0.731 | 11.5 | 0.252 | IC50 (B*4501; [1]): 0.123 µM
CC[C@H](C)[C@H](NC(=O)[C@@H]1CCCN1C(=O)[C@@H](NC(=O)[C@H](CCCCN)NC(=O)CNC(=O)CNC(=O)[C@H](CC(=O)O)NC(=O)[C@H](C)NC(=O)[C@H](Cc1c[nH]cn1)NC(=O)[C@H](Cc1ccc(O)cc1)NC(=O)[C@H](CCC(=O)O)NC(=O)[C@@H](N)[C@@H](C)O)C(C)C)C(=O)O [compound 492] | 0.632 | 3.34 | 0.195 | 
CSCC[C@H](NC(=O)[C@H](CO)NC(=O)[C@H](CCC(=O)O)NC(=O)[C@@H](N)Cc1ccccc1)C(=O)N1CCC[C@H]1C(=O)N[C@@H](CC(N)=O)C(=O)N1CCC[C@H]1C(=O)N[C@@H](CCC(=O)O)C(=O)NCC(=O)O [compound 507] | 6.07 | 14.8 |  | 
C[C@H](NC(=O)CNC(=O)[C@H](CCCNC(=N)N)NC(=O)[C@H](CCC(=O)O)NC(=O)[C@@H]1CCCN1)C(=O)N1CCC[C@H]1C(=O)N1CCC[C@H]1C(=O)N[C@@H](CO)C(=O)N[C@H](C(=O)O)[C@@H](C)O [compound 541] |  | 1.12 | 4.74 | IC50 (B*4002 (B61)): 7.68 µM; IC50 (B*4501; [1]): 7.77 µM
CC(C)[C@H](NC(=O)[C@H](CCC(=O)O)NC(=O)[C@@H](N)CCC(N)=O)C(=O)N[C@H](C(=O)N[C@@H](C)C(=O)N[C@@H](CCC(=O)O)C(=O)N[C@@H](CC(=O)O)C(=O)NCC(=O)N[C@H](C(=O)O)[C@@H](C)O)[C@@H](C)O [compound 547] | 5.21 | 7.89 |  | IC50 (B*4501; [1]): 1.84 µM
CC(C)[C@H](NC(=O)[C@H](C)NC(=O)[C@H](CCCNC(=N)N)NC(=O)[C@@H](NC(=O)[C@H](CCC(=O)O)NC(=O)[C@@H](N)CCCNC(=N)N)C(C)C)C(=O)N[C@H](C(=O)O)[C@@H](C)O [compound 550] | 8.56 |  | 3.14 | 
CC[C@H](C)[C@H](NC(=O)[C@H](CCC(=O)O)NC(=O)[C@H](CCC(=O)O)NC(=O)[C@H](CC(C)C)NC(=O)[C@@H](NC(=O)[C@H](CCC(=O)O)NC(=O)[C@@H](N)Cc1ccccc1)[C@@H](C)O)C(=O)O [compound 551] | 1.52 |  | 7.62 | 
CSCC[C@H](NC(=O)[C@H](C)NC(=O)CNC(=O)[C@H](CO)NC(=O)[C@@H]1CCCN1C(=O)[C@@H](NC(=O)[C@H](CC(C)C)NC(=O)[C@@H]1CCCN1C(=O)[C@H](CCC(=O)O)NC(=O)[C@@H](N)C(C)C)[C@@H](C)O)C(=O)O [compound 559] | 4.65 | 4.37 |  | IC50 (B*4002 (B61)): 0.584 µM
CC(C)C[C@H](NC(=O)[C@H](CCC(=O)O)NC(=O)[C@@H](N)[C@@H](C)O)C(=O)N[C@@H](CCCNC(=N)N)C(=O)N[C@@H](CCCCN)C(=O)N[C@H](C(=O)N[C@@H](CCCCN)C(=O)N[C@H](C(=O)N[C@@H](CC(C)C)C(=O)NCC(=O)O)C(C)C)C(C)C [compound 561] | 0.721 | 3.65 |  | IC50 (B*4002 (B61)): 0.601 µM
C[C@H](NC(=O)[C@H](Cc1c[nH]cn1)NC(=O)[C@H](Cc1ccc(O)cc1)NC(=O)[C@H](CCC(=O)O)NC(=O)[C@@H](NC(=O)[C@H](CCC(=O)O)NC(=O)[C@@H](N)CC(=O)O)[C@@H](C)O)C(=O)N[C@@H](CC(=O)O)C(=O)NCC(=O)O [compound 562] | 0.159 |  |  | IC50 (B*4501; [1]): 13.4 µM
CC[C@H](C)[C@H](NC(=O)CNC(=O)[C@H](Cc1ccccc1)NC(=O)[C@@H](NC(=O)[C@H](CC(C)C)NC(=O)[C@H](CCC(N)=O)NC(=O)[C@H](CC(C)C)NC(=O)[C@H](Cc1ccc(O)cc1)NC(=O)[C@H](CCC(=O)O)NC(=O)[C@@H](N)CO)C(C)C)C(=O)O [compound 650] |  |  |  | IC50 (B*1801; [2]): 0.0052 µM
CC(C)C[C@H](NC(=O)[C@H](Cc1ccc(O)cc1)NC(=O)[C@H](CC(N)=O)NC(=O)[C@H](CCC(=O)O)NC(=O)[C@@H](N)CCC(N)=O)C(=O)N[C@@H](CCC(=O)O)C(=O)N[C@@H](Cc1ccc(O)cc1)C(=O)N[C@@H](CCCNC(=N)N)C(=O)N[C@@H](CCC(N)=O)C(=O)N[C@H](C(=O)O)C(C)C [compound 653] |  |  |  | IC50 (B*1801; [2]): 0.21 µM
CC(C)C[C@H](NC(=O)CNC(=O)[C@H](CC(C)C)NC(=O)[C@H](C)NC(=O)[C@H](CCC(=O)O)NC(=O)CNC(=O)[C@H](CCCNC(=N)N)NC(=O)[C@H](C)NC(=O)[C@H](CCC(=O)O)NC(=O)[C@@H](N)CC(C)C)C(=O)N[C@H](C(=O)NCC(=O)N[C@@H](C)C(=O)O)C(C)C [compound 655] |  |  |  | IC50 (B*1801; [2]): 0.228 µM; IC50 (B*4402; [2]): 3.89 µM; IC50 (B*4501; [2]): 0.135 µM
CC[C@H](C)[C@H](NC(=O)[C@H](Cc1c[nH]cn1)NC(=O)[C@@H]1CCCN1C(=O)[C@H](CCC(=O)O)NC(=O)CN)C(=O)N[C@@H](CO)C(=O)N[C@@H](Cc1ccc(O)cc1)C(=O)N1CCC[C@H]1C(=O)N1CCC[C@H]1C(=O)N[C@@H](CC(C)C)C(=O)O [compound 682] |  |  |  | IC50 (B*1801; [2]): 7.25 µM

Read-outs that look alike come from different tables or passages of the source.
